Values after ≈ are worked out from the molar mass of the structure shown.
Columns and labels:
[1] = system: Staphylococcus aureus; test: Antibacterial activity against Staphylococcus aureus ATCC 29213 after 18 hrs by broth microdilution method; format: functional; conditions: ATCC 29213, 18 h
Procedure, shortened: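 Broth microdilution. Exponential-phase bacteria grown in MHB at 37 °C, diluted to about 1 × 10^6 CFU/mL in MHB and mixed 1:1 with two-fold dilutions of peptide. MIC is the lowest concentration with no visible turbidity after 18 h at 37 °C. Controls were uninoculated broth and peptide-free culture. At least three repeats, duplicates each.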

[2] = system: Pseudomonas aeruginosa; test: Antibacterial activity against Pseudomonas aeruginosa ATCC 27853 after 18 hrs by broth microdilution method; format: functional; conditions: ATCC 27853, 18 h
Procedure, shortened: (§1)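 Broth microdilution in Mueller-Hinton broth. Exponential-phase bacteria (37 °C, 220 rpm shaking) were diluted to about 1 × 10^6 CFU/mL and mixed 1:1 with two-fold serial peptide dilutions. MIC is the lowest concentration with no visible turbidity after 18 h at 37 °C. Controls were uninoculated MHB and untreated culture. Run at least three times, two replicates each.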

[3] = system: Pseudomonas aeruginosa; test: Antibacterial activity against Pseudomonas aeruginosa CICC 10419 after 18 hrs by broth microdilution method; format: functional; conditions: CICC 10419, 18 h; procedure, shortened: as §1
[4] = system: Pseudomonas aeruginosa; test: Antibacterial activity against Pseudomonas aeruginosa CICC 21625 after 18 hrs by broth microdilution method; format: functional; conditions: CICC 21625, 18 h; procedure, shortened: as §1
[5] = system: Pseudomonas aeruginosa; test: Antibacterial activity against Pseudomonas aeruginosa CICC 21630 after 18 hrs by broth microdilution method; format: functional; conditions: CICC 21630, 18 h; procedure, shortened: as §1
[6] = system: Pseudomonas aeruginosa; test: Antibacterial activity against ciprofloxacin-resistant Pseudomonas aeruginosa 11411 after 18 hrs by broth microdilution method; format: functional; conditions: Pseudomonas aeruginosa, 11411, 18 h
Procedure, shortened: (§2)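 Broth microdilution in Mueller-Hinton broth. Exponential-phase bacteria (37 °C, 220 rpm shaking) were diluted to about 1 × 10^6 CFU/mL and mixed 1:1 with two-fold serial peptide dilutions. Controls were uninoculated MHB and untreated culture. Run at least three times, two replicates each.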

[7] = system: Pseudomonas aeruginosa; test: Antibacterial activity against gentamicin-resistant Pseudomonas aeruginosa 11421 after 18 hrs by broth microdilution method; format: functional; conditions: Pseudomonas aeruginosa, 11421, 18 h; procedure, shortened: as §2
[8] = system: Pseudomonas aeruginosa; test: Antibacterial activity against ceftazidime-resistant Pseudomonas aeruginosa 11431 after 18 hrs by broth microdilution method; format: functional; conditions: Pseudomonas aeruginosa, 11431, 18 h; procedure, shortened: as §1
[9] = system: Pseudomonas aeruginosa; test: Antibacterial activity against Pseudomonas aeruginosa 21328 clinical isolate after 18 hrs by broth microdilution method; format: functional; conditions: Pseudomonas aeruginosa, 21328, 18 h
[10] = system: Pseudomonas aeruginosa; test: Antibacterial activity against Pseudomonas aeruginosa 25349 clinical isolate after 18 hrs by broth microdilution method; format: functional; conditions: Pseudomonas aeruginosa, 25349, 18 h
[11] = system: Pseudomonas aeruginosa; test: Antibacterial activity against Pseudomonas aeruginosa 26305 clinical isolate after 18 hrs by broth microdilution method; format: functional; conditions: Pseudomonas aeruginosa, 26305, 18 h
[12] = system: Pseudomonas aeruginosa; test: Antibacterial activity against Pseudomonas aeruginosa ATCC 27853 after 18 hrs in presence of NaCl by broth microdilution method; format: functional; conditions: ATCC 27853, 18 h
Procedure, shortened: (§3)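 Broth microdilution MIC against ATCC 27853 in Mueller-Hinton broth with added salt at final concentrations: NaCl 150 mM, KCl 4.5 mM, NH4Cl 6 µM, ZnCl2 8 µM, FeCl3 4 µM. Inoculum about 1 × 10^6 CFU/mL from exponential phase, mixed 1:1 with two-fold peptide dilutions. MIC read as no visible turbidity after 18 h at 37 °C.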

[13] = system: Pseudomonas aeruginosa; test: Antibacterial activity against Pseudomonas aeruginosa ATCC 27853 after 18 hrs in presence of KCl by broth microdilution method; format: functional; conditions: ATCC 27853, 18 h; procedure, shortened: as §3
[14] = system: Pseudomonas aeruginosa; test: Antibacterial activity against Pseudomonas aeruginosa ATCC 27853 after 18 hrs in presence of NH4Cl by broth microdilution method; format: functional; conditions: ATCC 27853, 18 h; procedure, shortened: as §3
[15] = system: Pseudomonas aeruginosa; test: Antibacterial activity against Pseudomonas aeruginosa ATCC 27853 after 18 hrs in presence of ZnCl2 by broth microdilution method; format: functional; conditions: ATCC 27853, 18 h; procedure, shortened: as §3
[16] = system: Pseudomonas aeruginosa; test: Antibacterial activity against Pseudomonas aeruginosa ATCC 27853 after 18 hrs in presence of MgCl2 by broth microdilution method; format: functional; conditions: ATCC 27853, 18 h
Procedure, shortened: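 Broth microdilution MIC in MHB against the reference strain. About 1 × 10^6 CFU/mL exponential-phase inoculum mixed 1:1 with two-fold peptide dilutions in medium containing 1 mM MgCl2 (final). Lowest concentration with no visible turbidity after 18 h at 37 °C.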

[17] = system: Pseudomonas aeruginosa; test: Antibacterial activity against Pseudomonas aeruginosa ATCC 27853 after 18 hrs in presence of FeCl3 by broth microdilution method; format: functional; conditions: ATCC 27853, 18 h; procedure, shortened: as §3
[18] = system: Escherichia coli; test: microbe, parasite or virus in culture; conditions: ATCC 25922, 18 h

CC[C@H](C)[C@H](NC(=O)CN)C(=O)NCC(=O)N[C@@H](C)C(=O)N[C@H](C(=O)N[C@@H](CC(C)C)C(=O)N[C@@H](CCCCN)C(=O)N[C@H](C(=O)N[C@@H](CC(C)C)C(=O)N[C@H](C(=O)N[C@H](C(=O)NCC(=O)N[C@@H](CC(C)C)C(=O)N1CCC[C@H]1C(=O)N[C@@H](C)C(=O)N[C@@H](CC(C)C)C(=O)N[C@H](C(=O)N[C@@H](CO)C(=O)N[C@@H](Cc1c[nH]c2ccccc12)C(=O)N[C@H](C(=O)N[C@@H](CCCCN)C(=O)N[C@@H](CCCNC(=N)N)C(=O)N[C@@H](CCCCN)C(=O)N[C@@H](CCCNC(=N)N)C(=O)N[C@@H](CCC(N)=O)C(=O)N[C@@H](CCC(N)=O)C(N)=O)[C@@H](C)CC)[C@@H](C)CC)[C@@H](C)O)[C@@H](C)O)C(C)C)C(C)C [MELITTIN]
MIC [1]: 8 µg/mL (≈ 2.81 µM)
MIC [2]: 4 µg/mL (≈ 1.41 µM)
MIC [3]: 8 µg/mL (≈ 2.81 µM)
MIC [4]: 16 µg/mL (≈ 5.62 µM)
MIC [5]: 8 µg/mL (≈ 2.81 µM)
MIC [6]: 4 µg/mL (≈ 1.41 µM)
MIC [7]: 8 µg/mL (≈ 2.81 µM)
MIC [8]: 8 µg/mL (≈ 2.81 µM)
MIC [9]: 4 µg/mL (≈ 1.41 µM)
MIC [10]: 4 µg/mL (≈ 1.41 µM)
MIC [11]: 2 µg/mL (≈ 0.703 µM)
MIC [12]: 64 µg/mL
MIC [13]: 8 µg/mL
MIC [14]: 8 µg/mL
MIC [15]: 8 µg/mL
MIC [16]: 32 µg/mL
MIC [17]: 16 µg/mL
MIC [18]: 2 µg/mL (≈ 0.703 µM)

Source: ChEMBL document CHEMBL4007441, “Novel Design of Heptad Amphiphiles To Enhance Cell Selectivity, Salt Resistance, Antibiofilm Properties and Their Membrane-Disruptive Mechanism” (J Med Chem, 2017)
